The results in this text go back to PMC6891394, “Determination of Picomolar Concentrations of Paraoxon in Human Urine by Fluorescence-Based Enzymatic Assay” (2019).

Sequences of proteins named here, by UniProt entry; tags and fusion partners are left off. Residues count along the entry.
UniProt Q7SIG1, 1-310 limits assumed: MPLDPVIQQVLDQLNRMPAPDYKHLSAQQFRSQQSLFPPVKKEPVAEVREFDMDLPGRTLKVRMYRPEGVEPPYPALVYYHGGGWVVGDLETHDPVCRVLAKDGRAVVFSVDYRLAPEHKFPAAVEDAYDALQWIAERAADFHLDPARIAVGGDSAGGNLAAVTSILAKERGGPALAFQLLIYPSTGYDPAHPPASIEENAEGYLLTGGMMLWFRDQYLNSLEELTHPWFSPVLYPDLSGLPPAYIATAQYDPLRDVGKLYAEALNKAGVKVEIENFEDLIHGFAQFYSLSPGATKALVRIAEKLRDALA

The test deals with esterase-2 (EST2) (Alicyclobacillus acidocaldarius, UniProt Q7SIG1). Description: fluorescence of released 4-MU (Ex […], Em […] nm); Lineweaver-Burk. The settings on record: 25 mM HEPES pH 7.0, 1% Triton X-100, 30 °C.

The term Km denotes the substrate concentration at which the rate is half of its maximum. Consider `CCCC(=O)Oc1ccc2c(C)cc(=O)oc2c1`, for which the Michaelis-Menten constant (Km) turned out to be 222 µM.
